Data from ChEMBL document CHEMBL5528038, “Discovery of 2,3-Diaminoindole Derivatives as a Novel Class of NOD Antagonists” (J Med Chem, 2024).

What was measured:
in vitro [1] = conditions: human, HEK-Blue hNOD1 cells
in vitro [2] = conditions: human, HEK-Blue hNOD2 cells

SMILES: Cc1ccc(S(=O)(=O)n2c(NC(C)(C)C)c(N3CCN(C)CC3)c3ccccc32)cc1
- viability at 18 h, 25 µM (in vitro [1]): ≥ 80%
- viability at 18 h, 25 µM (in vitro [2]): ≥ 80%
